In EP4831188A1, “GLYCYRRHETINIC ACID DERIVATIVE AND USE THEREOF” (dated 2026):

How the values were obtained:
[1] = system: RAW264.7 cells; test: Anti-inflammatory activity assay in cells (LPS-induced IL-1β content, ELISA); conditions: LPS 100 ng/mL, 24 h
Method: • 1.1 Cells: RAW264.7 cells, purchased from PROCELL, lot No.: JYBR1POD9R. • 1.2 Reagents: Lipopolysaccharide (LPS), purchased from SIGMA; DMEM cell culture medium, purchased from GIBCO; Mouse IL-1β ELISA Kit, purchased from Ruixin Bio.
RAW264.7 cells were seeded into a 96-well plate at 1×10^5 cells/well, with 100 µL of cell suspension added to each well. 50 µL of drugs at corresponding gradient concentrations (0.00128, 0.0064, 0.032, 0.16, 0.8, 4, 20, and 100 µM, respectively) were added to the wells of the test groups (Compounds 1 to 27) and the control drug groups (glycyrrhetinic acid and Comparative Compounds 1 to 10). The corresponding volume of culture medium was added to the wells of the blank control group and the model group. After 1 h of incubation, 50 µL of LPS (final LPS concentration of 100 ng/mL) was added to the wells of the model group, the control drug groups, and the test groups. After incubation in an incubator at 37°C and 5% CO2 for 24 h, the supernatant was collected by centrifugation at 1000 rpm for 5 min. The IL-1β content was determined according to the instructions of the kit, and the IC50 values were calculated.

[2] = system: guinea pigs; test: Inhibitory activity assay against ear swelling in guinea pigs (DMSO/ethanol inflammatory agent); conditions: topical, 200 µL per ear; test compounds and glycyrrhetinic acid 40 mg/mL in absolute ethanol; hydrocortisone butyrate cream 1 mg/g; 45 min after modeling
Text: • 2.1 Animals: Ordinary grade guinea pigs, weighing about 300 g. • 2.2 Reagents: Inflammatory agent made from 80% dimethyl sulfoxide (DMSO) and 20% absolute ethanol; DMSO; absolute ethanol, analytical grade.
Ordinary grade guinea pigs were randomly divided into groups, with 10 animals in each group, half male and half female. The inner and outer sides of the left and right ears of the guinea pigs were shaved, and 4 points were marked on the medial side of the left ear margin. The thickness of these 4 points on the auricle of the guinea pigs was measured using a vernier caliper, and the average value was obtained as the baseline before administration. The corresponding drugs were applied dropwise to the auricles of the guinea pigs in each test group (Compound 1, Compound 2, Compound 3, Compound 9, Compound 16, Compound 17, Compound 18, Compound 21) and the glycyrrhetinic acid group, with 200 µL per ear. The blank control group and the model group were treated with the corresponding volume of absolute ethanol only. The positive control hydrocortisone butyrate group was treated with an equal volume of hydrocortisone butyrate cream. After 30 min of administration, the drugs were wiped off. The animals in the model group and the test groups were treated with the inflammatory agent on both sides of the left auricle (50 µL per ear). The blank control group was treated with the corresponding volume of normal saline only. At 45 min after modeling, the thickness of these 4 points was measured using a vernier caliper, and the average value was obtained. The difference was calculated as the ear swelling value of the guinea pigs. Inhibition rate of swelling value = (Swelling value of the model group - Swelling value of the sample group) / Swelling value of model group × 100%, wherein the sample group includes each test group, glycyrrhetinic acid group, and positive control hydrocortisone butyrate group.
• Test compounds and glycyrrhetinic acid: Dissolved in absolute ethanol to prepare a solution with a concentration of 40 mg/mL. • Positive control: Commercially available hydrocortisone butyrate cream (from Hubei Heng'an Fulin Pharmaceutical Co., Ltd., specification: 1 mg/g).

[3] = system: BALB/c mice; test: Chloroquine-induced pruritus in mice; conditions: 100 mg once daily for 3 days, test compounds 3% cream, pimecrolimus cream 10 mg/g
Method: • 6.1 Animals: Balb/c mice, female. • 6.2 Reagents: Chloroquine; normal saline.
After 3 days of adaptive feeding, 50 female Balb/c mice were randomly divided into groups, with 10 mice in each group. The hair on a 2×3 cm^2 area of the back of each mouse was completely removed using depilatory cream. Except for the blank control group, the test groups (Compound 1, Compound 16) and the model group were treated with the corresponding drugs or matrix (pimecrolimus cream matrix) at the depilated site, 100 mg per time, once daily for 3 consecutive days. The positive control group was treated with the corresponding weight of pimecrolimus cream. Thirty minutes after the last administration, chloroquine (40 mg/kg) was injected subcutaneously. The blank control group was injected subcutaneously with the corresponding volume of normal saline only. The number of scratching bouts within 20 min after chloroquine injection was recorded.
• Test compounds: The formulations were prepared with reference to pimecrolimus cream (test compound concentration: 3%). • Positive control: Commercially available pimecrolimus cream (from MEDA Manufacturing, specification: 10 mg/g).

[4] = system: ICR mice; test: Inhibitory activity assay against ear swelling in ICR mice (phorbol ester, TPA); conditions: right ear, test compounds 3% cream, pimecrolimus cream 10 mg/g, compound dexamethasone acetate cream 0.75 mg/g, 50 µL
Method: • ICR mice, male, 20±2 g. • 3.2 Reagents: Inflammatory agent (phorbol ester (TPA)).
ICR mice were randomly divided into groups, with 8 mice in each group. The thickness of the right ear of each animal was measured using a micrometer. Subsequently, except for the blank control group, all mice in other groups were administered 20 µL of 0.03% TPA on both the inner and outer sides of the right ear (10 µL per side) to induce inflammation. The mice were dosed once at 1 h before modeling and 1 h after modeling, respectively. The test groups (Compound 1, Compound 16) received a dose volume of 50 µL each time. The blank control group and the model group (with matrix) were treated with the corresponding volumes of blank matrix (pimecrolimus cream matrix). The positive control group was treated with an equal volume of pimecrolimus cream or compound dexamethasone acetate cream. Before modeling, the ears should be cleaned prior to TPA application. Ear thickness measurement: The thickness of the right ear was measured at 0 h, 2 h, 4 h, and 6 h after TPA induction.
• Test compounds: The formulations were prepared with reference to pimecrolimus cream (from MEDA Manufacturing) (test compound concentration: 3%). • Positive control: Commercially available compound dexamethasone acetate cream (from China Resources Sanjiu Medical & Pharmaceutical Co., Ltd., specification: 0.75 mg/g); commercially available pimecrolimus cream (from MEDA Manufacturing, specification: 10 mg/g).

| SMILES | IC50 [1] | other results |
| --- | --- | --- |
| CN(C)CCOC(=O)[C@@]1(C)CC[C@]2(C)CC[C@]3(C)C(=CC(=O)[C@@H]4[C@@]5(C)C=C(C#N)C(=O)C(C)(C)[C@@H]5CC[C@]43C)[C@@H]2C1 | 20 to 100 nM |  |
| CC1(C)C(=O)CC[C@]2(C)[C@H]3C(=O)C=C4[C@@H]5C[C@@](C)(C(=O)OCCN6CCCC6)CC[C@]5(C)CC[C@@]4(C)[C@]3(C)CC[C@@H]12 | 20 to 100 nM |  |
| CC1(C)C(=O)C(O)=C[C@]2(C)[C@H]3C(=O)C=C4[C@@H]5C[C@@](C)(C(=O)O)CC[C@]5(C)CC[C@@]4(C)[C@]3(C)CC[C@@H]12 | > 1000 nM |  |
| CC1(C)C(=O)C(C#N)=C[C@]2(C)[C@H]3C(=O)C=C4[C@@H]5C[C@@](C)(C(=O)O)CC[C@]5(C)CC[C@@]4(C)[C@]3(C)CC[C@@H]12 | > 1000 nM |  |
| CC1(C)C(=O)C(Br)=C[C@]2(C)[C@H]3C(=O)C=C4[C@@H]5C[C@@](C)(C(=O)O)CC[C@]5(C)CC[C@@]4(C)[C@]3(C)CC[C@@H]12 | 100 to 1000 nM |  |
| CC1(C)C(=O)CC[C@]2(C)[C@H]3C(=O)C=C4[C@@H]5C[C@@](C)(C(=O)OCCN6CCOCC6)CC[C@]5(C)CC[C@@]4(C)[C@]3(C)CC[C@@H]12 | 20 to 100 nM |  |
| CC1(C)C(=O)CC[C@]2(C)[C@H]3C(=O)C=C4[C@H]5C[C@@](C)(C(=O)OCCN6CCCC6)CC[C@]5(C)CC[C@@]4(C)[C@]3(C)CC[C@@H]12 | 20 to 100 nM |  |
| CC1(C)C(=O)C(I)=C[C@]2(C)[C@H]3C(=O)C=C4[C@@H]5C[C@@](C)(C(=O)O)CC[C@]5(C)CC[C@@]4(C)[C@]3(C)CC[C@@H]12 | > 1000 nM |  |
| CC1(C)C(=O)C(C#N)=C[C@]2(C)C3=CC=C4[C@@H]5C[C@@](C)(C(=O)O)CC[C@]5(C)CC[C@@]4(C)[C@]3(C)CC[C@@H]12 | > 1000 nM |  |
| CC[C@@H]1/C=C(\C)C[C@H](C)C[C@H](OC)[C@H]2O[C@@](O)(C(=O)C(=O)N3CCCC[C@H]3C(=O)O[C@H](/C(C)=C/[C@@H]3CC[C@H](Cl)[C@H](OC)C3)[C@H](C)[C@@H](O)CC1=O)[C@H](C)C[C@@H]2OC |  | Number of scratching bouts ([3]; 0-10 min after chloroquine 40 mg/kg s.c.): 22±9; Number of scratching bouts ([3]; 0-20 min after chloroquine 40 mg/kg s.c.): 44+12; Number of scratching bouts ([3]; 10-20 min after chloroquine 40 mg/kg s.c.): 22±6; Thickness ([4]; 0 h after TPA induction): 0.211 ± 0.008 mm; Thickness ([4]; 2 h after TPA induction): 0.268 ± 0.035 mm; Thickness ([4]; 4 h after TPA induction): 0.32±0.035 mm; Thickness ([4]; 6 h after TPA induction): 0.339±0.046 mm |
| CC1(C)C(=O)C(Cl)=C[C@]2(C)C3=CC=C4[C@@H]5C[C@@](C)(C(=O)O)CC[C@]5(C)CC[C@@]4(C)[C@]3(C)CC[C@@H]12 | > 1000 nM |  |

Further lines, with some results ahead:

| IC50 [1] | SMILES | other results |
| --- | --- | --- |
| 100 to 1000 nM | CN(C)CCOC(=O)[C@@]1(C)CC[C@]2(C)CC[C@]3(C)C(=CC=C4[C@@]5(C)C=C(C#N)C(=O)C(C)(C)[C@@H]5CC[C@]43C)[C@@H]2C1 |  |
| 20 to 100 nM | CCN(CC)c1nc2c(s1)C[C@]1(C)[C@H]3C(=O)C=C4[C@@H]5C[C@@](C)(C(=O)O)CC[C@]5(C)CC[C@@]4(C)[C@]3(C)CC[C@H]1C2(C)C |  |
| 20 to 100 nM | CC1(C)C(=O)CC[C@]2(C)[C@H]3C(=O)C=C4[C@H]5C[C@@](C)(C(=O)OCCN6CCCCC6)CC[C@]5(C)CC[C@@]4(C)[C@]3(C)CC[C@@H]12 |  |
| 20 to 100 nM | CC1(C)C(=O)CC[C@]2(C)[C@H]3C(=O)C=C4[C@@H]5C[C@@](C)(C(=O)OCCN6CCCCC6)CC[C@]5(C)CC[C@@]4(C)[C@]3(C)CC[C@@H]12 |  |
| > 1000 nM | CC1(C)C(=O)CC[C@]2(C)C3=CC=C4[C@@H]5C[C@@](C)(C(=O)O)CC[C@]5(C)CC[C@@]4(C)[C@]3(C)CC[C@@H]12 |  |
| > 1000 nM | CC1(C)[C@@H](O)CC[C@]2(C)[C@H]3C(=O)C=C4[C@@H]5C[C@@](C)(C(=O)O)CC[C@]5(C)CC[C@@]4(C)[C@]3(C)CC[C@@H]12 | Ear swelling inhibition rate [2]: C (40% or less) |
| > 1000 nM | CN(C)CCOC(=O)[C@@]1(C)CC[C@]2(C)CC[C@]3(C)C(=CC(=O)[C@@H]4[C@@]5(C)CC[C@H](O)C(C)(C)[C@@H]5CC[C@]43C)[C@@H]2C1 |  |
| 20 to 100 nM | CCCN(CCC)c1nc2c(s1)C[C@]1(C)[C@H]3C(=O)C=C4[C@@H]5C[C@@](C)(C(=O)O)CC[C@]5(C)CC[C@@]4(C)[C@]3(C)CC[C@H]1C2(C)C |  |
| 20 to 100 nM | CC1(C)C(=O)CC[C@]2(C)[C@H]3C(=O)C=C4[C@H]5C[C@@](C)(C(=O)OCCN6CCOCC6)CC[C@]5(C)CC[C@@]4(C)[C@]3(C)CC[C@@H]12 |  |
| 100 to 1000 nM | CCN(CC)CCOC(=O)[C@@]1(C)CC[C@]2(C)CC[C@]3(C)C(=CC=C4[C@@]5(C)C=C(C#N)C(=O)C(C)(C)[C@@H]5CC[C@]43C)[C@@H]2C1 |  |
| 100 to 1000 nM | CC1(C)C(=O)C(Br)=C[C@]2(C)[C@H]3C(=O)C=C4[C@H]5C[C@@](C)(C(=O)O)CC[C@]5(C)CC[C@@]4(C)[C@]3(C)CC[C@@H]12 |  |
| > 1000 nM | CC1(C)C(=O)CC[C@]2(C)[C@H]3C(=O)C=C4[C@@H]5C[C@@](C)(C(=O)O)CC[C@]5(C)CC[C@@]4(C)[C@]3(C)CC[C@@H]12 |  |
| 20 to 100 nM | CCN(CC)CCCCCOC(=O)[C@@]1(C)CC[C@]2(C)CC[C@]3(C)C(=CC(=O)[C@@H]4[C@@]5(C)CCC(=O)C(C)(C)[C@@H]5CC[C@]43C)[C@@H]2C1 |  |
| > 1000 nM | CN(C)CCOC(=O)[C@@]1(C)CC[C@]2(C)CC[C@]3(C)C(=CC(=O)[C@@H]4[C@@]5(C)CCC(=O)C(C)(C)[C@@H]5CC[C@]43C)[C@@H]2C1 |  |
| 20 to 100 nM | CCN(CC)CCOC(=O)[C@@]1(C)CC[C@]2(C)CC[C@]3(C)C(=CC(=O)[C@@H]4[C@@]5(C)Cc6sc(N(C)C)nc6C(C)(C)[C@@H]5CC[C@]43C)[C@@H]2C1 |  |
